PubChem BioAssay (NCI)
Some tests of the compounds listed are not included; inactive here does not mean inactive elsewhere.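 Cells were grown in 96-well plates and exposed to each compound for 48 hours at five concentrations; endpoints were interpolated linearly between bracketing concentrations, or set to the highest concentration if not reached. At the GI50, growth is halved. TGI is the concentration that stops growth completely.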

How the values were obtained:
Experiment in all cases: NCI-60 cell line screen, 48 h; in the data active = GI50 below about 0.43 µM; inactive = the rest
[1] = test system: A549 NSCLC
[2] = test system: SR leukemia
[3] = test system: UO-31 renal
[4] = test system: K-562 leukemia
[5] = test system: TK-10 renal
[6] = test system: SK-OV-3 ovarian
[7] = test system: NCI-H226 lung
[8] = test system: NCI-H322M lung
[9] = test system: NCI-H522 lung
[10] = test system: IGROV1 ovarian
[11] = test system: SK-MEL-5 melanoma
[12] = test system: HCC-2998 colon
[13] = test system: DU-145 prostate
[14] = test system: OVCAR-5 ovarian
[15] = test system: NCI-H460 lung
[16] = test system: M14 melanoma
[17] = test system: COLO 205 colon
[18] = test system: MDA-MB-435
[19] = test system: OVCAR-3 ovarian
[20] = test system: RPMI-8226 leukemia
[21] = test system: KM12 colon
[22] = test system: UACC-62 melanoma
[23] = test system: A498 renal
[24] = test system: SF-295 CNS
[25] = test system: SK-MEL-2 melanoma
[26] = test system: SN12C renal
[27] = test system: 786-0 renal
[28] = test system: MALME-3M melanoma
[29] = test system: OVCAR-8 ovarian
[30] = test system: RXF 393 renal
[31] = test system: SNB-19 CNS
[32] = test system: HCT-15 colon
[33] = test system: LOX IMVI melanoma
[34] = test system: HL-60(TB) leukemia
[35] = test system: SF-268 CNS
[36] = test system: HOP-62 NSCLC
[37] = test system: HS 578T breast
[38] = test system: MCF7 breast
[39] = test system: U251 CNS
[40] = test system: MOLT-4 leukemia
[41] = test system: OVCAR-4 ovarian
[42] = test system: HT29 colon
[43] = test system: HCT-116 colon
[44] = test system: CAKI-1 renal
[45] = test system: ACHN renal
[46] = test system: SF-539 CNS
[47] = test system: EKVX NSCLC
[48] = test system: HOP-92 NSCLC
[49] = test system: SK-MEL-28 melanoma
[50] = test system: MDA-MB-231 breast
[51] = test system: SW-620 colon
[52] = test system: NCI-H23 lung
[53] = test system: CCRF-CEM leukemia
[54] = test system: SNB-75 CNS
[55] = test system: NCI/ADR-RES ovarian
[56] = test system: PC-3 prostate
[57] = test system: UACC-257 melanoma
[58] = test system: T-47D breast

C/C=C\C(O)(C(=O)OC1CCN(C)CC1)C1CCCCC1 (stereo unspecified)
> 100 µM: TGI [1] | TGI [2] | TGI [3] | TGI [4] | TGI [5] | TGI [6] | TGI [7] | TGI [8] | TGI [9] | TGI [10] | TGI [11] | TGI [12] | TGI [13] | TGI [14] | TGI [15] | TGI [16] | TGI [17] | TGI [18] | TGI [19] | TGI [20] | TGI [21] | TGI [22] | TGI [23] | TGI [24] | TGI [25] | TGI [26] | TGI [27] | TGI [28] | TGI [29] | TGI [30] | TGI [31] | TGI [32] | TGI [33] | TGI [34] | TGI [35] | TGI [36] | TGI [37] | TGI [38] | TGI [39] | TGI [40] | TGI [41] | TGI [42] | TGI [43] | TGI [44] | TGI [45] | TGI [46] | TGI [47] | TGI [48] | TGI [49] | TGI [50] | TGI [52] | TGI [53] | TGI [54] | TGI [55] | TGI [56] | TGI [57] | TGI [58]
63.1 µM: TGI [51]
inactive: GI50 [1] > 100 µM | GI50 [2] > 100 µM | GI50 [3] > 100 µM | GI50 [4] > 100 µM | GI50 [5] > 100 µM | GI50 [6] > 100 µM | GI50 [7] > 100 µM | GI50 [8] > 100 µM | GI50 [9] > 100 µM | GI50 [10] > 100 µM | GI50 [11] > 100 µM | GI50 [12] > 100 µM | GI50 [13] > 100 µM | GI50 [14] > 100 µM | GI50 [15] > 100 µM | GI50 [16] > 100 µM | GI50 [17] > 100 µM | GI50 [18] > 100 µM | GI50 [19] > 100 µM | GI50 [20] > 100 µM | GI50 [21] > 100 µM | GI50 [22] > 100 µM | GI50 [23] > 100 µM | GI50 [24] > 100 µM | GI50 [25] > 100 µM | GI50 [26] > 100 µM | GI50 [27] > 100 µM | GI50 [28] > 100 µM | GI50 [29] > 100 µM | GI50 [30] > 100 µM | GI50 [31] 41.6 µM | GI50 [32] > 100 µM | GI50 [33] > 100 µM | GI50 [34] > 100 µM | GI50 [35] > 100 µM | GI50 [36] > 100 µM | GI50 [37] > 100 µM | GI50 [38] > 100 µM | GI50 [39] > 100 µM | GI50 [40] > 100 µM | GI50 [41] > 100 µM | GI50 [42] > 100 µM | GI50 [43] > 100 µM | GI50 [44] 37.7 µM | GI50 [45] > 100 µM | GI50 [46] > 100 µM | GI50 [47] > 100 µM | GI50 [48] > 100 µM | GI50 [49] > 100 µM | GI50 [50] > 100 µM | GI50 [51] 25.2 µM | GI50 [52] > 100 µM | GI50 [53] > 100 µM | GI50 [54] 80.1 µM | GI50 [55] > 100 µM | GI50 [56] > 100 µM | GI50 [57] > 100 µM | GI50 [58] > 100 µM
